Consider one substance from article PMC11613347, “A Glucose-Responsive Glucagon-Micelle for the Prevention of Hypoglycemia” (ACS Central Science, 2024).

The conditions of data set [1]: conjugate versus unconjugated polymer, variable-temperature UV-Vis.
For data set [2] the following is noted: 37 °C.

Take “PEG-b-P(NIPAM-stat-2-APBA)-GCG [Polymer P4-GCG]”: the “cloud point lower than that of the polymer alone” value in data set [1] came out at 2.5 °C. For the same substance, in data set [2] (absence of glucose), the “self-assembly state by DLS” value was “self-assembled into micelles”. Further, the “hydrodynamic diameter (Dh) of micelles” value in data set [2] (DLS, without any glucose addition) is on record as 119.6 nm.
